Results from patent publication US20150330981A1 (published 2015).

Assays:
Test in all cases: GST pull-down from HEK-293T whole cell extract, anti-HA Western blot
HA PPARγ = molecular target: T1, HA PPARγ (mouse, UniProt P37238 1-505, limits assumed)
T1 construct: Expressed in HEK-293T; whole cell extract was used; also called mPPARγ; not shown: HA tag
T1 sequence (looked up): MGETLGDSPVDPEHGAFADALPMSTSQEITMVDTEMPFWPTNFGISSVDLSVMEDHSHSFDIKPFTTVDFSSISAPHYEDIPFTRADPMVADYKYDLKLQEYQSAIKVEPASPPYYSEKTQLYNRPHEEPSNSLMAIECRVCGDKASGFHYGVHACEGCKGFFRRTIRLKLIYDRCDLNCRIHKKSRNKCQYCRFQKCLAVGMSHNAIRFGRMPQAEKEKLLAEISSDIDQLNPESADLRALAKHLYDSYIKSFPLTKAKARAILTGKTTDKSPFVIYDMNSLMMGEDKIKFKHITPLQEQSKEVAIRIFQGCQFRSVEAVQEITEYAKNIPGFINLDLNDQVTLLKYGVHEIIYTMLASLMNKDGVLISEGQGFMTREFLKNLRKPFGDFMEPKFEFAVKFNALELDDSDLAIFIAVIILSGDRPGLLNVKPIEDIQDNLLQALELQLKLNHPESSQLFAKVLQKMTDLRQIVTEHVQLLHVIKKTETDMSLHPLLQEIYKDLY
Procedure: (§1) Firstly, GST fusion synoviolin which lack transmembrane domain (GST syno ΔTM) was incubated with glutathione-Sepharose 4B. The GST fusion protein was incubated with whole cell extract from HEK-293T expressing HA PPARγ, HA PPARα, HA PGC-1α, or HA PGC-1β. Bound protein was eluted and separated by SDS-PAGE, and Western blot was performed using anti-HA antibody. GST which was not fused to any protein was used as a control.

HA PPARα = molecular target: T2, HA PPARα (mouse, UniProt P23204 1-468)
T2 construct: Expressed in HEK-293T; whole cell extract was used; also called mPPARα; not shown: HA tag
T2 sequence (looked up): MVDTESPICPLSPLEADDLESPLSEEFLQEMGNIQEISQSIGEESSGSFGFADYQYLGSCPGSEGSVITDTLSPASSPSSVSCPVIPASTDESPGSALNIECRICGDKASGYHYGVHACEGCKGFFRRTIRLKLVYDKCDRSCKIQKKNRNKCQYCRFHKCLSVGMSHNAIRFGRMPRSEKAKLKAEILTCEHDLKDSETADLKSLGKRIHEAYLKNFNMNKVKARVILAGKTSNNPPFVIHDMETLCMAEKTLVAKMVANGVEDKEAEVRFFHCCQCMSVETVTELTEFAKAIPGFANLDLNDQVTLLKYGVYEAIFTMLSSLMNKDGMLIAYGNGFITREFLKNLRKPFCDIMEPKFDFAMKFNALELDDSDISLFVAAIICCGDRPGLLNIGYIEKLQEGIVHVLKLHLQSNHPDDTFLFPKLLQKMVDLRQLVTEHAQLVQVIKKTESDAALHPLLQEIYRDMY
Procedure: as §1

HA PGC-1α = molecular target: T3, HA PGC-1α (mouse, UniProt O70343 1-797)
T3 construct: Expressed in HEK-293T; whole cell extract was used; also called mPGC-1α; not shown: HA tag
T3 sequence (looked up): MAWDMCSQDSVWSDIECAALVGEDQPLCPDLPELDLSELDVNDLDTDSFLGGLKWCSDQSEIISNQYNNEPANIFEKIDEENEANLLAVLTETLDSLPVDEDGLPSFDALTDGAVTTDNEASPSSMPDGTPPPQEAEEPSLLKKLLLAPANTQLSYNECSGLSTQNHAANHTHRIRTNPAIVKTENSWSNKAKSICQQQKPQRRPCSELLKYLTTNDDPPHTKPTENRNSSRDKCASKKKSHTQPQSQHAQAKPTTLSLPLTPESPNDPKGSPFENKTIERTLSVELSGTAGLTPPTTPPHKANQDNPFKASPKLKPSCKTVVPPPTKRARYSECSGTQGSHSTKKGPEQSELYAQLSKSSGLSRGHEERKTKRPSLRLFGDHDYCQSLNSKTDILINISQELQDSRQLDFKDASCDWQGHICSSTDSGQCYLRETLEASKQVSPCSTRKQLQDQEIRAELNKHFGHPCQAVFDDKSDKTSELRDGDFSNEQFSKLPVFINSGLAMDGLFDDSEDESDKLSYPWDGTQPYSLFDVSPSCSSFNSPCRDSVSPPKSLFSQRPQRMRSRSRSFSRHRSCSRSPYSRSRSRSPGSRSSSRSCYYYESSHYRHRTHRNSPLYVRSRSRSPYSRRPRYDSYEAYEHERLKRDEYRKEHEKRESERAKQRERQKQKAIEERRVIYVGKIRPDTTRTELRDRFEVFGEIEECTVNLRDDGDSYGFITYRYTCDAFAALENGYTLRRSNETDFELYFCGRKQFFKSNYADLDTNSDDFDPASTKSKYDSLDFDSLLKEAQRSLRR
Procedure: as §1

[1] = molecular target: T4, HA PGC-1β (full-length mouse PGC-1β with HA tag) (mouse, UniProt Q8VHJ7 1-1014)
T4 construct: also called mPGC-1β; pcDNA3 HAPGC-1β; not shown: HA tag from pcDNA3 HA vector
T4 sequence (looked up): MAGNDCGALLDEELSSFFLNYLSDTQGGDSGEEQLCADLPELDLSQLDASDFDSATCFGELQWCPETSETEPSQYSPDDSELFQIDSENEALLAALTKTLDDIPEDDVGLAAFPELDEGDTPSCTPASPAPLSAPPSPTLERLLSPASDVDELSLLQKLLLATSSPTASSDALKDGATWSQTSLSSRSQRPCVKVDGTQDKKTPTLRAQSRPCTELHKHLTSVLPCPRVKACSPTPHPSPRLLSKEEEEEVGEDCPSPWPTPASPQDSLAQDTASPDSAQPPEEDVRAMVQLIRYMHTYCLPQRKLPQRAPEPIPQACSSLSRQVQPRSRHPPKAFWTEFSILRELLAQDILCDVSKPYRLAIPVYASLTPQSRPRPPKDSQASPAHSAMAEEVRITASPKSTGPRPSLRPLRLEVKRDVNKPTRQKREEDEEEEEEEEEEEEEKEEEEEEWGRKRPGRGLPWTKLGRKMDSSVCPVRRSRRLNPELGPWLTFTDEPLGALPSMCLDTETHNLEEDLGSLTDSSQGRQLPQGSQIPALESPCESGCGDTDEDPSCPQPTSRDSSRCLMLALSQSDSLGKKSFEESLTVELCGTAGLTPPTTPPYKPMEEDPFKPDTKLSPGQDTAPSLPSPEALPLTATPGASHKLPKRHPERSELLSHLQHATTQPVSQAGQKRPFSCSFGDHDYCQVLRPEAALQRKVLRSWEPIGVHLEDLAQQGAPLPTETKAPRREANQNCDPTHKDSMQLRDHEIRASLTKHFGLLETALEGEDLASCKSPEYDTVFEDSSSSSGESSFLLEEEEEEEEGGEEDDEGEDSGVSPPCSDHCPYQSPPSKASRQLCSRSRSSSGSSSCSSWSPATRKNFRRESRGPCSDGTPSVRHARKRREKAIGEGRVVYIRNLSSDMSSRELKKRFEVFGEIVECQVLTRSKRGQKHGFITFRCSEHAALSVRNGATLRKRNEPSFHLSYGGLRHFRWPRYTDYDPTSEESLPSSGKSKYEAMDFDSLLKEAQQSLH
Procedure: as §1

binding result (HA PPARγ): no binding
binding result (HA PPARα): no binding
binding result (HA PGC-1α): no binding
binding result [1]: no binding
B1: GST which was not fused to any protein (other, UniProt P08515 1-218, looked up)
chain: MSPILGYWKIKGLVQPTRLLLEYLEEKYEEHLYERDEGDKWRNKKFELGLEFPNLPYYIDGDVKLTQSMAIIRYIADKHNMLGGCPKERAEISMLEGAVLDIRYGVSRIAYSKDFETLKVDFLSKLPEMLKMFEDRLCHKTYLNGDHVTHPDFMLYDALDVVLYMDPMCLDAFPKLVCFKKRIEAIPQIDKYLKSSKYIAWPLQGWQATFGGGDHPPK
notes: Control of the GST pull-down
